Literature values as cited in patent US9670133B2, “Mixtures of cannabinoid compounds, and production and use thereof” (priority 2013, dated 2017).

Target: CB2 receptors
Details: literature (Pertwee et al. 2010); read-out: Affinity for CB2; cited from earlier work

For `C=C(C)[C@@H]1CCC(C)=C[C@H]1c1c(O)cc(CCCCC)cc1O` [CBD, 2-[1R-3-methyl-6-(1-methylethenyl)-2-cyclohexene-1-yl]-5-pentyl-1,3-benzenediol], the Ki is given as at least 2400 nM.
